Several values for one entry are separate records, joined by “and”; a condition that tells them apart may be missing. Equal values may be shown once.
What was measured:
Format in all cases: cell-based
[1] = tested on: Colo205 colon cancer cells; assay: MTT proliferation (chemosensitivity) assay, Colo205
SW620 colon cancer cells = assay: MTT proliferation (chemosensitivity) assay, SW620
Procedure: (§1) MTT proliferation tests were performed as described. The proliferation control of both the untreated cells and the CHP pre-treated cells is set to 100%.
(§2) Unless otherwise indicated, all cell lines were obtained from the American Type Culture Collection (ATCC, Rockville, Md.) and grown to confluent monolayers in RPMI-1640 bicarbonate medium (Seromed, Berlin, Germany) in a humidified incubator (5% CO2, 37° C.). Cells were checked for mycoplasma contamination. The medium was supplemented with 10% heat-inactivated foetal bovine serum (Seromed) and 4 mM glutamine. The cells were subcultured by trypsination (0.03% trypsin containing 0.02% EDTA, three times a week). Cells numbers were counted using a TOA Sysmex microcellcounter (TOA, Tokyo, Japan).
(§3) 10^4 cells/well were distributed into 96-well microtitre plates (100 μl medium) and the compounds to be tested were added in another 100 μl volume. All compounds were diluted in triplicate or in most cases in quadruplicate. Plates were incubated under tissue culture conditions for 4 days, except those for tests investigating the relationship between application time and response, and cell viability was measured using a modified MTT assay (formazane dye formation from tetrazolium salts by mitochondrial reduction; EZ4U, Biomedica, Vienna, Austria), assessing mitochondrial activity and thereby cell viability/cell numbers. In brief, the supplied substrate was diluted in an activator solution and 20 μl of the mixture added per well for 2 hrs. The optical density was measured at 450 nm using an empty well as reference in a microplate reader (Eurogenetics, Brussels, Belgium). For each cell line, 8 wells were used to measure the MTT signal of the medium control without test substances and the proliferation in the test wells was calculated in relation to these control values set to 100%. Test results were recorded between 0.3 and 1.5 optical densities for slowly and rapidly proliferating cells respectively.
(§4) SW620chp4 and A431chp4 cells represent cells pre-treated with 400 μg/ml CHP for 5 days under tissue culture conditions.

[2] = tested on: A431 epidermoid carcinoma; assay: MTT proliferation (chemosensitivity) assay, A431
Procedure: as §1, §2, §3, §4

[3] = Colo 205 cells pre-incubated with the derivative 50 μg/ml for 5 days, then Cetuximab, Cetuximab concentrations not given

In the case of `CCOC(=O)[C@@H]1CC(OC(=O)Nc2ccccc2)CN1C` (stereo partly shown) [A1.23, 1-methyl-4-phenylamino-carbonyloxy-proline ethyl ester], the “proliferation activity (% of control)” value [1, 3] is reported as 93.9 ± 2.9%.

`CCOC(=O)[C@@H]1CC(O)CN1C` (stereo partly shown) [A1.21, 4-hydroxy-1-methyl-proline ethyl ester] was tested, and the “proliferation activity (% of control)” value [1, 3] was 101.4 ± 2.1% and 99.4 ± 2.1% and 100.9 ± 1.9% and 99.4 ± 3.0% and 92.7 ± 2.5%.

“Cetuximab: commercially available monoclonal antibody directed to a tumour antigen, used as supplied for clinical use” was tested, and the “proliferation activity (% of control)” value (SW620 colon cancer cells; SW620chp4 (cells pre-treated with 400 μg/ml CHP for 5 days), Cetuximab 1.6 μg/ml) was 93.9 ± 2.1 %, the “proliferation activity (% of control)” value (SW620 colon cancer cells; SW620chp4 (cells pre-treated with 400 μg/ml CHP for 5 days), Cetuximab 3.2 μg/ml) was 92.7 ± 0.6 % and the “proliferation activity (% of control)” value (SW620 colon cancer cells; SW620chp4 (cells pre-treated with 400 μg/ml CHP for 5 days), Cetuximab 6.3 μg/ml) was 97.8 ± 4.1 %. For the same compound, the “proliferation activity (% of control)” value (SW620 colon cancer cells; SW620chp4 (cells pre-treated with 400 μg/ml CHP for 5 days), Cetuximab 12.5 μg/ml) was 98.6 ± 2.6%, the “proliferation activity (% of control)” value (SW620 colon cancer cells; SW620chp4 (cells pre-treated with 400 μg/ml CHP for 5 days), Cetuximab 25 μg/ml) was 99.2 ± 2.9% and the “proliferation activity (% of control)” value (SW620 colon cancer cells; SW620chp4 (cells pre-treated with 400 μg/ml CHP for 5 days), Cetuximab 50 μg/ml) was 98.5 ± 3.2%. For the same compound, the “proliferation activity (% of control)” value (SW620 colon cancer cells; SW620con (cells not pre-treated), Cetuximab 1.6 μg/ml) was 101.5 ± 1.5%, the “proliferation activity (% of control)” value (SW620 colon cancer cells; SW620con (cells not pre-treated), Cetuximab 3.2 μg/ml) was 101.8 ± 2.1% and the “proliferation activity (% of control)” value (SW620 colon cancer cells; SW620con (cells not pre-treated), Cetuximab 6.3 μg/ml) was 102.7 ± 1.8%. The “proliferation activity (% of control)” value (SW620 colon cancer cells; SW620con (cells not pre-treated), Cetuximab 12.5 μg/ml) was 100.2 ± 4.0%, the “proliferation activity (% of control)” value (SW620 colon cancer cells; SW620con (cells not pre-treated), Cetuximab 25 μg/ml) was 101.7 ± 2.7% and the “proliferation activity (% of control)” value (SW620 colon cancer cells; SW620con (cells not pre-treated), Cetuximab 50 μg/ml) was 100.5 ± 4.3%. For the same compound, the “proliferation activity (% of control)” value ([2]; A431chp4 (cells pre-treated with 400 μg/ml CHP for 5 days), Cetuximab 1.6 μg/ml) was 92.6 ± 9.1%, the “proliferation activity (% of control)” value ([2]; A431chp4 (cells pre-treated with 400 μg/ml CHP for 5 days), Cetuximab 3.2 μg/ml) was 101.9 ± 3.4 % and the “proliferation activity (% of control)” value ([2]; A431chp4 (cells pre-treated with 400 μg/ml CHP for 5 days), Cetuximab 6.3 μg/ml) was 99.4 ± 1.5 %. The “proliferation activity (% of control)” value ([2]; A431chp4 (cells pre-treated with 400 μg/ml CHP for 5 days), Cetuximab 12.5 μg/ml) was 98.7 ± 3.8 %, the “proliferation activity (% of control)” value ([2]; A431chp4 (cells pre-treated with 400 μg/ml CHP for 5 days), Cetuximab 25 μg/ml) was 101.1 ± 2.8 % and the “proliferation activity (% of control)” value ([2]; A431chp4 (cells pre-treated with 400 μg/ml CHP for 5 days), Cetuximab 50 μg/ml) was 98.4 ± 4.6 %. For the same compound, the “proliferation activity (% of control)” value ([2]; A431con (cells not pre-treated), Cetuximab 1.6 μg/ml) was 89.5 ± 2.6%, the “proliferation activity (% of control)” value ([2]; A431con (cells not pre-treated), Cetuximab 3.2 μg/ml) was 93.3 ± 1.9% and the “proliferation activity (% of control)” value ([2]; A431con (cells not pre-treated), Cetuximab 6.3 μg/ml) was 91.3 ± 4.7%. The “proliferation activity (% of control)” value ([2]; A431con (cells not pre-treated), Cetuximab 12.5 μg/ml) was 89.3 ± 1.6%, the “proliferation activity (% of control)” value ([2]; A431con (cells not pre-treated), Cetuximab 25 μg/ml) was 94.7 ± 1.9% and the “proliferation activity (% of control)” value ([2]; A431con (cells not pre-treated), Cetuximab 50 μg/ml) was 92.3 ± 2.4%. The “proliferation activity (% of control)” value ([1]; C205con (Cetuximab alone), Cetuximab 0.15 μg/ml) was 94.8 ± 5.9%, the “proliferation activity (% of control)” value ([1]; C205con (Cetuximab alone), Cetuximab 0.3 μg/ml) was 104.2 ± 6.8% and the “proliferation activity (% of control)” value ([1]; C205con (Cetuximab alone), Cetuximab 0.6 μg/ml) was 98.0 ± 3.5%. The “proliferation activity (% of control)” value ([1]; C205con (Cetuximab alone), Cetuximab 1.25 μg/ml) was 101.6 ± 7.1%, the “proliferation activity (% of control)” value ([1]; C205con (Cetuximab alone), Cetuximab 2.5 μg/ml) was 101.7 ± 4.3% and the “proliferation activity (% of control)” value ([1]; C205con (Cetuximab alone), Cetuximab 5 μg/ml) was 100.7 ± 7.9%. The “proliferation activity (% of control)” value ([1]; C205con (Cetuximab alone), Cetuximab 10 μg/ml) was 99.1 ± 3.2%, the “proliferation activity (% of control)” value ([1]; C205con (Cetuximab alone), Cetuximab 20 μg/ml) was 103.1 ± 3.0% and the “proliferation activity (% of control)” value ([1]; C205con (Cetuximab alone), Cetuximab 40 μg/ml) was 100.1 ± 4.6%. For the same compound, the “proliferation activity (% of control)” value ([1]; C205con (cells not pre-incubated), Cetuximab, concentrations not given) was 97.9 ± 11% and 95.9 ± 6.3% and 96.5 ± 9.9% and 94.9 ± 4.6% and 95.4 ± 8.2% and 93.1 ± 2.5%.

For `CC(C)COC(=O)[C@@H]1CC(OC(=O)Nc2ccccc2)CN1C` (stereo partly shown) [A2.23, 1-methyl-4-phenylamino-carbonyloxy-proline-isobutyl ester], the “proliferation activity (% of control)” value [1, 3] was 101.6 ± 5.9%.

Source: US7727530B2, “Anti-cancer composition comprising proline or its derivatives and an anti-tumour antibody” (priority 2004, dated 2010)
